{
  "sequences": {"note": "By UniProt entry, the sequences of proteins in these tests, tags left out.", "UniProt P37411, whole entry": "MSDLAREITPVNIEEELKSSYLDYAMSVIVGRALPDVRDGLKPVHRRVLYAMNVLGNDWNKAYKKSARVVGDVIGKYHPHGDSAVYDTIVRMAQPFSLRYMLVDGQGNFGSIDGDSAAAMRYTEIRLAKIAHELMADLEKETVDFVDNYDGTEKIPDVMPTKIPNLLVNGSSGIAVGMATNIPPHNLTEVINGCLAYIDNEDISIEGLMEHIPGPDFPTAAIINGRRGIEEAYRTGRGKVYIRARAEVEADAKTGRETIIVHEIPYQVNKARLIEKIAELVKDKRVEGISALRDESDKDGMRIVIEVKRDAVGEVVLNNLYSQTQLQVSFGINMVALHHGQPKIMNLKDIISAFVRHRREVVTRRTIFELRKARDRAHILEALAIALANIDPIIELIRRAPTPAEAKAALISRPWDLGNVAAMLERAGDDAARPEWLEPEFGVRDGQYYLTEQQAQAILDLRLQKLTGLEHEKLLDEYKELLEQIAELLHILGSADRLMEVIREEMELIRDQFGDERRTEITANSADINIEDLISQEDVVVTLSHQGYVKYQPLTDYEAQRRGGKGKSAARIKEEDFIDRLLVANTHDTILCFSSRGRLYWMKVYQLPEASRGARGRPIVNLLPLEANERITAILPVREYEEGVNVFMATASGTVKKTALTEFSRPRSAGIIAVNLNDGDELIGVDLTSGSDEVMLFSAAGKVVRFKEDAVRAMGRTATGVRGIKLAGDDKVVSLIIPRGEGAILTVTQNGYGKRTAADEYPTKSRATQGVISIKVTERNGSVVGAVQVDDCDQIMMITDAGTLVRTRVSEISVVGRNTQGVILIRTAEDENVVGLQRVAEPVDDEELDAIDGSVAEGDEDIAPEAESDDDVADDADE"},
  "source": "paper PMC10715191",
  "about": "“Exploration of the novel fluoroquinolones with high inhibitory effect against quinolone-resistant DNA gyrase of Salmonella Typhimurium” (Microbiology Spectrum, 2023)",
  "molecular_target": "T1, WT S. Typhimurium DNA gyrase (Salmonella typhimurium, UniProt P0A2I3+P37411)",
  "T1 construct": "made in house; host or cells: Escherichia coli BL21(DE3)",
  "experiment": "Fluoroquinolone-inhibited DNA supercoiling assay, WT DNA gyrase",
  "type": "biochemical",
  "details": "read-out: IC50s ± SD, WT (converted)",
  "text": "Recombinant DNA gyrase was obtained as separate subunits, GyrA and GyrB. In total, plasmids encoding nine subunits including WT GyrA and GyrB as well as seven GyrA with amino acid substitutions (Ser83Phe, Ser83Ile, Ser83Tyr, Asp87Gly, Asp87Asn, Asp87Tyr, and […]) in the quinolone resistance determining region were constructed as described in our previous study ([38]). These plasmids were introduced into Escherichia coli BL21(DE3) (Merck KGaA, Darmstadt, Germany), and protein expression was induced in the bacterial cells. A transformed E. coli was inoculated into Luria-Bertani broth supplemented with ampicillin (50 mg/L) and incubated at 37°C until the optical density value reached 0.60. Expression of GyrA and GyrB was induced by adding 1 mM isopropyl beta-D-1-thiogalactopyranoside (Wako Pure Chemical Industries Ltd, Osaka, Japan) followed by incubation at 16°C for 40 h (for GyrA), or 18°C for 13 h (for GyrB). […] The protein purity was assessed by sodium dodecyl sulfate-polyacrylamide gel electrophoresis (SDS-PAGE) (ATTO, Tokyo, Japan) as shown in Fig. 7.\n[…]. […] The amount of supercoiled DNA was quantified by its intensity using ImageJ, the digital image processing software (https://imagej.nih.gov/ij/download.html). […]",
  "data": [
    {"smiles": "O=C(O)c1cn(C2CC2)c2cc(N3CCNCC3)c(F)cc2c1=O", "note": "[Ciprofloxacin]", "values": [
      {"measurement": "IC50", "result": 0.217, "unit": "µM"}
    ]}
  ]
}
